The numbers were not newly measured in patent US20240124538A1, “Modulation of Wnt5a to Treat Glaucoma” (The Regents of the University of California, priority 2017, published 2024), which cites them from elsewhere.

For this data set the following is noted: Shinonaga et al. 2009; cited from earlier work.

With 6,7-dihydro-10alpha-hydroxy radicicol, the stability entry was “excellent stability”.
